# From article PMC9715946, “Bioenhancing effects of piperine and curcumin on triterpenoid pharmacokinetics and neurodegenerative metabolomes from Centella asiatica extract in beagle dogs” (Scientific Reports, 2022)
# Assay: Pharmacokinetic study: plasma triterpenoids by LCMS, non-compartmental analysis
# Type: in vivo, beagle dogs
# Settings: for AUC0–24 / AUC0–inf / CL / Cmax / MRT / Vd / Half-life / Tmax: plasma; for AUC0–24 / AUC0–inf / CL / Cmax / MRT / Vd: mean ± SD; for Half-life / Tmax: median (IQR)
# From the text: The proposed animal experiment was approved by the Institutional Animal Care and Use Committee of the Chulalongkorn University Laboratory Animal Centre (CULAC), Chulalongkorn University, Bangkok, Thailand (Protocol number 2073029, Approval date: […] The dogs were fed with a normal dog diet (Beauty Pro, Nippon Pet Food Co. Ltd.) once a day and water ad libitum. Two groups of four dogs were randomly used with a 2-week washout period. […] After receiving the test substances, the dogs were transferred to a metabolic cage for 48 h for the collection of urine and faeces. All animal procedures were performed in accordance with the ethical principles, regulations, and guidelines for the use of animals (National Research Council of Thailand, 2015). This study was conducted in compliance with the ARRIVE guidelines. Four experimental groups received the oral test compound once daily for seven consecutive days, as follows: ([…] 20 […] 20 mg/kg + piperine 20 mg/kg; ([…] 20 mg/kg + curcumin 20 mg/kg; and (iv) […] 20 mg/kg + piperine 20 mg/kg + curcumin 20 mg/kg. The test substance powders received from the suppliers were packed into gelatine capsule, and the dogs were orally administered two to four capsules in the morning, according to the number of test substances required in the experimental plan. Blood samples (2-3 mL) were withdrawn from the cephalic or saphenous vein using an IV catheter and placed in heparinised tubes. […] The pre-dose and 24 h post-dose blood chemistry parameters were determined by the Small Animal Hospital, Faculty of Veterinary Science, Chulalongkorn University for all dogs, in order to monitor the health status of the dogs. […] All biological samples were kept at - 80 °C until required for analysis. Where the concentration of the samples exceeded the linear calibration curve, blank matrices were used to dilute the sample before protein precipitation. Methanol was used to extract the major triterpenoids from the biological samples for LCMS analysis. In brief, 50 μL of the biological sample was added to 200 μL methanol containing glycyrrhizin and glycyrrhetinic acid as internal standards. The mixture was then centrifuged at 12,000g for 10 min at 4 °C to collect the supernatant, and 10 μL of the supernatant was injected into the LCMS system to measure the concentration of the targeted analytes. […] A Synergi Fusion-RP C18 column (Phenomenex Inc.) was selected as the stationary phase and maintained at 40 °C in the column oven. […] The lower limit of quantification (LLOQ) of each of the compounds in this study ranged from 1.00 to 10.00 μg/L, according to the compound. After oral administration, pharmacokinetic parameters were determined by PK solution software version 2.0 (Submit Research Services, USA.) using non-compartmental analysis. The maximum plasma concentration (Cmax) and time to reach maximum plasma concentration (Tmax) were calculated directly from the concentration-time curves. The area under the curve from time 0-24 h (AUC0-24) was determined by the trapezoidal method and extrapolated to time infinity by the equation AUC0-inf = AUC0-24 + (Clast/kel), where Clast is the last measurable plasma concentration and kel is the elimination rate constant. The rate of […] was equal to - 2.303 × slope. The mean residence time (MRT) was calculated as AUMC0-inf/AUC0-inf, where AUMC0-inf is the area under the first moment curve. The volume of distribution (Vd) was equivalent to dose/C0, where C0 is the concentration of drug measured in plasma at time zero. The total clearance (CL) was equal to dose/AUC0-inf, and the elimination half-life was determined by 0.693/kel. […] The difference in blood chemistry parameters pre-dose and post-dose was compared using Student's t test. SPSS version 22.0 (IBM Corp.) was used to determine statistically significant differences between the experimental groups. […]
# [1] = after 20 mg/kg Centell-S + 20 mg/kg curcumin p.o., Day 1
# [2] = after 20 mg/kg Centell-S + 20 mg/kg curcumin p.o., Day 7
# [3] = after 20 mg/kg Centell-S + 20 mg/kg piperine + 20 mg/kg curcumin p.o., Day 1
# [4] = after 20 mg/kg Centell-S + 20 mg/kg piperine + 20 mg/kg curcumin p.o., Day 7
# [5] = after 20 mg/kg Centell-S + 20 mg/kg piperine p.o., Day 1
# [6] = after 20 mg/kg Centell-S + 20 mg/kg piperine p.o., Day 7
substance,measurement,setting,value
asiaticoside,Time to reach maximum plasma concentration,"after oral dosing, day 1",1 to 2 h
same,Time to reach maximum plasma concentration,"day 7, in most tested groups",2 to 4 h
same,AUC0–24,[1],1245 ± 429 ng·h/mL
same,AUC0–inf,[1],1452 ± 613 ng·h/mL
same,CL,[1],71.2 ± 64.7 mL/min/kg
same,Cmax,[1],217.38 ± 61.62 ng/mL
same,MRT,[1],19.20 ± 11.02 h
same,Vd,[1],98.90 ± 21.70 L/kg
same,Half-life,[1],20.79 (19.63) h
same,Tmax,[1],1.50 (1.50) h
same,AUC0–24,[2],1379 ± 224 ng·h/mL
same,AUC0–inf,[2],1723 ± 552 ng·h/mL
same,CL,[2],67.8 ± 24.3 mL/min/kg
same,Cmax,[2],226.13 ± 63.89 ng/mL
same,MRT,[2],33.30 ± 13.98 h
same,Vd,[2],107.53 ± 42.64 L/kg
same,Half-life,[2],17.32 (5.92) h
same,Tmax,[2],2.00 (0.00) h
same,AUC0–24,[3],1638 ± 263 ng·h/mL
same,AUC0–inf,[3],1941 ± 315 ng·h/mL
same,CL,[3],67.7 ± 13 mL/min/kg
same,Cmax,[3],314.45 ± 38.90 ng/mL
same,MRT,[3],27.30 ± 5.11 h
same,Vd,[3],109.35 ± 52.20 L/kg
same,Half-life,[3],13.83 (5.75) h
same,Tmax,[3],1.50 (1.00) h
same,AUC0–24,[4],1536 ± 180 ng·h/mL
same,AUC0–inf,[4],1599 ± 147 ng·h/mL
same,CL,[4],70.2 ± 6.5 mL/min/kg
same,Cmax,[4],376.03 ± 23.99 ng/mL
same,MRT,[4],19.33 ± 3.74 h
same,Vd,[4],107.10 ± 7.81 L/kg
same,Half-life,[4],9.45 (2.53) h
same,Tmax,[4],0.75 (0.75) h
same,AUC0–24,[5],3146 ± 288 ng·h/mL
same,AUC0–inf,[5],5687 ± 428 ng·h/mL
same,CL,[5],17 ± 8.67 mL/min/kg
same,Cmax,[5],441.53 ± 13.15 ng/mL
same,MRT,[5],61.87 ± 34.24 h
same,Vd,[5],63.45 ± 10.99 L/kg
same,Half-life,[5],19.35 (15.64) h
same,Tmax,[5],2.00 (0.25) h
same,AUC0–24,[6],1812 ± 500 ng·h/mL
same,AUC0–inf,[6],2144 ± 623 ng·h/mL
same,CL,[6],33.7 ± 17 mL/min/kg
same,Cmax,[6],380.10 ± 72.27 ng/mL
same,MRT,[6],22.58 ± 8.92 h
same,Vd,[6],74.73 ± 25.05 L/kg
same,Half-life,[6],19.68 (2.79) h
same,Tmax,[6],2.00 (0.50) h
same,AUC0–24,"after CTS 20 mg/kg p.o., Day 1",2844 ± 315 ng·h/mL
same,AUC0–inf,"after CTS 20 mg/kg p.o., Day 1",5664 ± 385 ng·h/mL
same,CL,"after CTS 20 mg/kg p.o., Day 1",9.67 ± 4.17 mL/min/kg
same,Cmax,"after CTS 20 mg/kg p.o., Day 1",339.17 ± 58.20 ng/mL
same,MRT,"after CTS 20 mg/kg p.o., Day 1",63.30 ± 11.60 h
same,Vd,"after CTS 20 mg/kg p.o., Day 1",81.70 ± 5.20 L/kg
same,Half-life,"after CTS 20 mg/kg p.o., Day 1",19.55 (6.20) h
same,Tmax,"after CTS 20 mg/kg p.o., Day 1",2.00 (0.00) h
same,AUC0–24,"after CTS 20 mg/kg p.o., Day 7",3364 ± 449 ng·h/mL
same,AUC0–inf,"after CTS 20 mg/kg p.o., Day 7",5997 ± 458 ng·h/mL
same,CL,"after CTS 20 mg/kg p.o., Day 7",15.7 ± 8.67 mL/min/kg
same,Cmax,"after CTS 20 mg/kg p.o., Day 7",354.23 ± 69.57 ng/mL
same,MRT,"after CTS 20 mg/kg p.o., Day 7",58.33 ± 18.58 h
same,Vd,"after CTS 20 mg/kg p.o., Day 7",62.60 ± 14.01 L/kg
same,Half-life,"after CTS 20 mg/kg p.o., Day 7",23.13 (14.37) h
same,Tmax,"after CTS 20 mg/kg p.o., Day 7",1.50 (1.00) h
